Laboratory results from patent US7524487B2, “Compositions and methods for modulating interleukin-10” (University of Maryland, priority 2005, dated 2009).

Tested on: bone marrow derived macrophages (BMMφ)
Assay: Cytokine ELISA on supernatants of stimulated bone marrow derived macrophages (LPS ± E-IgG)
Settings: macrophages pretreated with 100 uM okadaic acid for 1 hour, then LPS plus or minus E-IgG

## C=C1[C@@H](O)[C@@H]2O[C@]3(CC[C@H](/C=C/[C@@H](C)[C@@H]4CC(C)=C[C@@]5(O[C@H](C[C@@](C)(O)C(=O)O)CC[C@H]5O)O4)O3)CC[C@H]2O[C@@H]1[C@@H](O)C[C@H](C)[C@H]1O[C@@]2(CCCCO2)CC[C@H]1C [Okadaic Acid]
  IL-10 production in stimulated BMMφ after phosphatase inhibition: dramatically increases
